# Results: patent publication US5496697A, “Methods and apparatus for detecting the effect of cell affecting agents on living cells” (priority 1993, dated 1996)
# Amino acid sequences for entries named in this document (tags omitted). A change or cut given only in a name is not applied to a line headed by its entry.
# UniProt P08482: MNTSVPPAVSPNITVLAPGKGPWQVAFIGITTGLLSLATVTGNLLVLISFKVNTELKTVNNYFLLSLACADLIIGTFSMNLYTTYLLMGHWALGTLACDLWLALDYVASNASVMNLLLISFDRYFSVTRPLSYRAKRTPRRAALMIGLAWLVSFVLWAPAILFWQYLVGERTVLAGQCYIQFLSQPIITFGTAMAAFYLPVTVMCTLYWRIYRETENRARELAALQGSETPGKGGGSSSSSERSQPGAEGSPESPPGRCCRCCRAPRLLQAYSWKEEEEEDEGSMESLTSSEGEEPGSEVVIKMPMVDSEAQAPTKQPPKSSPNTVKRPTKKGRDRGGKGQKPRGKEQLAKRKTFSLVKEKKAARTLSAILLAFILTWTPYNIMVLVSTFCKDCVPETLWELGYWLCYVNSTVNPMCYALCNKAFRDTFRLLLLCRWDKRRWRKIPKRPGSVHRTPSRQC
# Assays:
# [1] = biological target: T1, rat M1 muscarinic receptor (Rattus norvegicus, UniProt P08482); assay: metabolic rate of M1C-2 cells (B82 cells transfected with rat M1 muscarinic receptor)
# [2] = biological target: T1, rat M1 muscarinic receptor; assay: acidification by M1C-2 cells, protocol with increased temporal resolution; type: cell-based; parameters: expressed in transfected cells; host or cells: M1C-2 (murine B82 fibroblasts, an L cell derivative, transfected with the rat M1 receptor under the dexamethasone-inducible MMTV promoter; provided by Dr. J. C; Venter, NIH); conditions: carbachol
# Description: FIGS. 29 and 30 show results obtained with a protocol modified slightly to increase the temporal resolution of the rapid response of the M1C-2 cells to carbachol. Two chambers (one experimental and one control) were assembled with cells and equilibrated as described above,
# During an off period, the flow rate was changed from 100 μl/min to 200 μl/min. When the flow resumed, an injection valve was switched to introduce carbachol containing medium into the cell chamber. The flow was stopped after 45 seconds and the acidification of the medium was followed (FIG. 29). The time derivative of the sensor potential (equivalent to pH) was calculated using a 5 point quadratic Savitsky-Golay (1964) algorithm and is shown in FIG. 30. (See Savitsky, A., and Golay, M. (1964) Smoothing and differentiation of data by simplified least squares procedures. Analytical Chem 36:1627-1639 .)
# Thus, the rate of acidification can be followed with an improved resolution of ~2 seconds over the period in which the flow is off. […] At this point, flow must be restored and data collection-halted.
# The response peak occurred 50-60 seconds after the cessation of medium flow. It should be noted that because a 5 point Savitsky-Golay algorithm was used in the calculations, the first few points are not valid; they include data points during the time of medium flow.
# [3] = tested on: CTLL cells; assay: metabolic rate of CTLL cells immobilized in agarose on a cover slip; type: cell-based, mice
# Description: CTLL cells (a cytotoxic T-Cell line from mice) are a nonadherent cell line that requires the presence of Interleukin-2 (IL-2; an immune modulator) to remain viable. Two mL of cells were removed from a confluent T-25 flask of CTLL cells and centrifuged to pellet the cells. The supernatant was discarded and the cells were resuspended in 300 μL of a 2 % agarose solution (in medium). The cells were again centrifuged to a pellet, and a 2 μL aliquot was removed from the cell pellet and spread over an approximate 40 mm^2 circle on a cover slip that was housed in a humidified chamber. The cover slip chamber was then refrigerated for 20 minutes to allow the agarose to gel. The cover slip was removed from the humidified chamber and placed in a flow chamber. Medium containing 20 units/mL of IL-2 or medium only was alternately flowed across the cells. […] At this time, the cells were beginning to detach from the agarose gel. As expected, as the cell density decreased, so did the rate of acidification of the chamber.
# [4] = tested on: CTLL cells; assay: metabolic rate of CTLL cells trapped in wells; type: cell-based, mice
# Description: CTLL cells were trapped in the flow chamber in rectangular wells. Referring to FIG. 25, an array 1 of 1000 μm long, 50 μm wide slots, with 50 μm separation between slots, was cut into a 50 μm thick piece of stainless steel foil 2 with an eximer laser. This was mounted in the 100 μm deep flow chamber under pieces of 50 μm thick plastic 3 arranged to press the foil against the silicon semiconductor electrode surface when the cover slip was mounted. This left a channel about 1 mm wide and 50 μm deep above the slots, thereby forming wells.
# CTLL cells were settled into the wells at a linear flow velocity of the medium in the channel of no more than about 15 μm/sec. Alternatively, the wells could be loaded by flowing the medium faster than 15 μm/sec. until the cells were suspended above the wells, and then stopping the flow entirely for approximately 10 seconds while the cells sedimented into the wells. This flow/stop procedure was repeated until sufficient cells were trapped.
# The cells remained in the wells for flow rates below approximately 100 μm/sec, above which many were flushed out. Alternatively, momentary inversion of the chamber caused the cells to sediment into the flow stream and be flushed away at lower flow rates.
# Metabolic rates of -30 to -60 μV/sec were obtained from CTLL cells. […] This is an indication that the presence of IL-2 can be detected on the time scale of a few hours. […]
# [5] = M1C-2 cells, carbachol, FIG. 27
compound,measurement,setting,value
C[N+](C)(C)CCOC(N)=O [carbachol],time of peak,[1]; [5],approximately 50 seconds
same,time to steady state level,[1]; [5],200 s
same,activation at 3.12 µM,[1]; read-out: increase in metabolic rate at peak,80%
same,activation at 10000 µM,[1]; read-out: increase in metabolic rate vs. baseline,75%
same,activation at 3.12 µM,[1]; read-out: steady state increase in metabolic rate,~40%
same,time of response peak after cessation of medium flow,[2],50 to 60 s
IL-2: Interleukin-2 (IL-2 ; an immune modulator),metabolic rate when IL-2 was reintroduced,[3]; 20 units/mL IL-2,began to increase
same,metabolic rate when IL-2 was removed,"[3]; 20 units/mL IL-2 removed, vs. control rate",began to decline
same,"metabolic rate after several hours with IL-2, of control value",[4]; IL-2 20 U/ml,over 50%
same,"metabolic rate after several hours without IL-2, of control value",[4]; IL-2 withdrawn,20-30%

# Where two headings read alike, the source gives them in different places.
